# Assay results as given in patent US20140135396A1, “Treatment of Acetaminophen-Induced Liver Damage by the Administration of Modulators of Nitric Oxide” (BETH ISRAEL DEACONESS MEDICAL CENTER, INC., priority 2011, published 2014).
# System: lfabp:GFP embryos
# Assay: APAP-induced liver injury in zebrafish larvae, sub-lethal dose (liver size, BrdU)
# Assay type: in vivo
# Settings: APAP 5 mM 48-60 hpf, treatment in recovery phase 60-96 hpf; L-NAME 10 μM, NAC 10 μM, GSNORi 1 μM
structure (smiles),measurement,value
"CC(=O)N[C@@H](CS)C(=O)O [NAC, N-acetylcysteine]",liver size,enhance liver size
